Biological target: topoisomerase IIα (Homo sapiens, UniProt P11388)
Test: Supercoiled pHOT1 DNA relaxation assay
Format: biochemical
Conditions: 1 mM, positive control
Source text: To determine whether CC-I is a specific inhibitor of topoisomerase I or IIα, the ability of CC-I to inhibit topoisomerases I and IIα activity was examined using a supercoiled DNA relaxation assay.

The chains behind the UniProt entries cited, without tags or fusion partners. Where a name states a change or a piece, a line headed by the entry shows the natural chain unless it says otherwise.
UniProt P11388: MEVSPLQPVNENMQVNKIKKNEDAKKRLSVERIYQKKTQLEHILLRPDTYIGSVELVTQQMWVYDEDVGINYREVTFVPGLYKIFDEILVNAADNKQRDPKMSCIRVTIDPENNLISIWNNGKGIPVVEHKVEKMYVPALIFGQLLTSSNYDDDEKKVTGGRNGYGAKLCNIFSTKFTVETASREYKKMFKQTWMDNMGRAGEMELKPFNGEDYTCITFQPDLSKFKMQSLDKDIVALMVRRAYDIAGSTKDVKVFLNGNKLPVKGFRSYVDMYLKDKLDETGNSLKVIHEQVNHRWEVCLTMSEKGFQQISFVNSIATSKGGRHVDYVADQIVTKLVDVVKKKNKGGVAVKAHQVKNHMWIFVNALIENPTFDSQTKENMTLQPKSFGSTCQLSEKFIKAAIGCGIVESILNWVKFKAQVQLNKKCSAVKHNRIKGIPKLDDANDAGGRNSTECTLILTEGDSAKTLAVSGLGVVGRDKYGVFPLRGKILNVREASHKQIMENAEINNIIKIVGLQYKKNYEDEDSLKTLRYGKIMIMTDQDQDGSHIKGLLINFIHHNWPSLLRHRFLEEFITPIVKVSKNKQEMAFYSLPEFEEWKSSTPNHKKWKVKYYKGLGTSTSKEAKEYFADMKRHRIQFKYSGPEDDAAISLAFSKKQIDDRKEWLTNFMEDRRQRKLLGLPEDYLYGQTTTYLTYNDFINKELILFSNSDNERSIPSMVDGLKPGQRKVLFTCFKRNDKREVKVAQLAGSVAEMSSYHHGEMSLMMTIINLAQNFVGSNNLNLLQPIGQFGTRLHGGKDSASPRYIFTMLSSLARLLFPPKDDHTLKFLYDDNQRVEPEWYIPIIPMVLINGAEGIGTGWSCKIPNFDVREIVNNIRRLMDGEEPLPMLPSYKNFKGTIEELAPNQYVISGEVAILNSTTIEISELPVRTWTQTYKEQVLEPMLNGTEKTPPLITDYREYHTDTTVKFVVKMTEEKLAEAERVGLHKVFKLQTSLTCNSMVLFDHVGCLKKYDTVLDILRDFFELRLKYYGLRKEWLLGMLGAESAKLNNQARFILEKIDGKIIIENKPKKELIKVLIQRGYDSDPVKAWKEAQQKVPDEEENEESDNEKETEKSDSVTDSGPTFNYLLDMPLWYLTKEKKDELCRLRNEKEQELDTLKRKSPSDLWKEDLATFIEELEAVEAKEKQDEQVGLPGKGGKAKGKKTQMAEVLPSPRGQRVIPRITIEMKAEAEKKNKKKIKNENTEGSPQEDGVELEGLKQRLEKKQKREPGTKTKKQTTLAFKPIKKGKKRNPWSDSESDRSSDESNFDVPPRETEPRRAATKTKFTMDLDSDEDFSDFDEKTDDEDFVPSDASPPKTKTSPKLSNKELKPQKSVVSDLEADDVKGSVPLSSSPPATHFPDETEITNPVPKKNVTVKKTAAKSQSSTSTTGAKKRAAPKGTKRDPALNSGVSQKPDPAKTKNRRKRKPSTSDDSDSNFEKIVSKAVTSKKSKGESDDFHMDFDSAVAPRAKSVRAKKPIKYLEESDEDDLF

COc1cc([C@@H]2c3cc4c(cc3[C@@H](O[C@@H]3O[C@@H]5CO[C@@H](C)O[C@H]5[C@H](O)[C@H]3O)[C@H]3COC(=O)[C@H]23)OCO4)cc(OC)c1O [etoposide, reference compound]
inhibition of topoisomerase IIα catalyzed pHOT1 relaxation: completely inhibited
